Data published in patent US12202815B2 (dated 2025).
Read-outs that look alike come from different tables or passages of the source.

How the values were obtained:
[1] = system: full length AR; test: LNCaP or AD1 degradation (AR FL), Western blot; type: cell-based; conditions: Table 3
[2] = biological target: T1, AR (Rattus norvegicus, UniProt P15207); conditions: 20 mg/kg
T1 sequence (P15207 1-902): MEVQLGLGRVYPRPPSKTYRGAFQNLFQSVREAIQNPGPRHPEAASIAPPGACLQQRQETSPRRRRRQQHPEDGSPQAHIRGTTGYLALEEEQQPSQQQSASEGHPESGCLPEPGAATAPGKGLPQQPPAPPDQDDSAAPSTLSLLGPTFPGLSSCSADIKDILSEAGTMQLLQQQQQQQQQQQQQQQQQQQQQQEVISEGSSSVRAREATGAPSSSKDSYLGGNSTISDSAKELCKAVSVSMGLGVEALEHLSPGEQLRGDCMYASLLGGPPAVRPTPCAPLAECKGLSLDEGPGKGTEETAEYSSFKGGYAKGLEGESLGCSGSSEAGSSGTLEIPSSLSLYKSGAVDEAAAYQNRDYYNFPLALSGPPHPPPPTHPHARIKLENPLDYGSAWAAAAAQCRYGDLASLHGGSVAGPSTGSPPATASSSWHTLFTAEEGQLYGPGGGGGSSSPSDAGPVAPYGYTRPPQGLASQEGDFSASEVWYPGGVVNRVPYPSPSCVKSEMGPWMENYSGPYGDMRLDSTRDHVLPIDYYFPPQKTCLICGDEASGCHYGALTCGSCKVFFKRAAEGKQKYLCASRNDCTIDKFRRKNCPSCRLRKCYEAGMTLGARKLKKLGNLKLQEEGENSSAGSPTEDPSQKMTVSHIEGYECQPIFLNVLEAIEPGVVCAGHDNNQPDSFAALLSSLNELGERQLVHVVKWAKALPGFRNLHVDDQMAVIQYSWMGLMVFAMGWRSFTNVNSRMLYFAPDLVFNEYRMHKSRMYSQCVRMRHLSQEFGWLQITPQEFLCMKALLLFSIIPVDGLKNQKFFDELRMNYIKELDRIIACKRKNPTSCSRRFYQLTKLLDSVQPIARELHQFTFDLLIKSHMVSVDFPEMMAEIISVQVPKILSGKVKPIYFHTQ

For C[C@](O)(Cn1cc(-c2ccc(F)cc2)nn1)C(=O)Nc1ccc(C#N)c(C(F)(F)F)c1 [Compound 1045], the “Degradation (% at 3 μM)” value [1] was 47% and the “Serum Conc.” value (Table 3, 20 mg/kg Hershberger) was 1209 nM.

With C[C@](O)(Cn1cc(F)cn1)C(=O)Nc1ccc(C#N)c(C(F)(F)F)c1 the “Serum Conc.” value (Table 2, rats 20 mg/kg, 24-30 hours after last dose) was 33 nM.

For C[C@](O)(Cn1cc(Cl)cn1)C(=O)Nc1ccc(C#N)c(C(F)(F)F)c1 [Compound 1049], the “Serum Conc.” value (Table 3, 20 mg/kg Hershberger) was 125 nM.

With C[C@](O)(Cn1ccc2cc(F)ccc21)C(=O)Nc1ccc(C#N)c(C(F)(F)F)c1 [Compound 11] the “(Prostate) % diff” value ([2]; prostate weight vs intact vehicle treated rats) was −19% and the “(S.V.) % diff” value ([2]; seminal vesicles weight vs intact vehicle treated rats) was −12%.
